Source: patent US9169279B2, “Crystallization method and bioavailability” (THAR PHARMACEUTICALS, INC., priority 2009, dated 2015)

Experiment: Rat PK study: zoledronic acid in plasma after IV, oral gavage or intraduodenal dosing (LC/MS/MS)

## Zoledronic Acid, Sodium Zoledronic Salt, and Water Complex
ID (intraduodenal) 5 mg/kg zoledronic acid equivalent, PEG 400, Time 0.25 hour
  Average plasma concentration of 3 rats: 39.99 ng/mL
ID (intraduodenal) 5 mg/kg zoledronic acid equivalent, PEG 400, Time 1 hour
  Average plasma concentration of 3 rats: 18.50 ng/mL
ID (intraduodenal) 5 mg/kg zoledronic acid equivalent, PEG 400, Time 4 hour
  Average plasma concentration of 3 rats: 0.71 ng/mL
ID (intraduodenal) 5 mg/kg zoledronic acid equivalent, PEG 400, Time 8 hour
  Average plasma concentration of 3 rats: 0.00 ng/mL
ID (intraduodenal) 5 mg/kg zoledronic acid equivalent, PEG 400, Time 24 hour
  Average plasma concentration of 3 rats: 0.00 ng/mL
PO 5 mg/kg zoledronic acid equivalent, PEG 400, Time 0.25 hour
  Average plasma concentration of 3 rats: 278.47 ng/mL
PO 5 mg/kg zoledronic acid equivalent, PEG 400, Time 0.5 hour
  Average plasma concentration of 3 rats: 280.20 ng/mL
PO 5 mg/kg zoledronic acid equivalent, PEG 400, Time 1 hour
  Average plasma concentration of 3 rats: 171.59 ng/mL
PO 5 mg/kg zoledronic acid equivalent, PEG 400, Time 4 hour
  Average plasma concentration of 3 rats: 13.42 ng/mL
PO 5 mg/kg zoledronic acid equivalent, PEG 400, Time 8 hour
  Average plasma concentration of 3 rats: 1.78 ng/mL
PO 5 mg/kg zoledronic acid equivalent, PEG 400, Time 24 hour
  Average plasma concentration of 3 rats: 0.00 ng/mL
